This is an account of results in patent US20050026236A1, “PDE 10 cell-based assay and sequences” (Pfizer Inc, priority 2001, published 2005).

This assay concerns the target PDE10A (UniProt Q9Y233).

Read-outs that look alike come from different tables or passages of the source.

As to `COc1ccc(Cc2nccc3cc(OC)c(OC)cc23)cc1OC` [Papaverine], the IC50 is 17 nM (read-out: IC50 value (PDE10A, text), competitive inhibitor) and 18 nM (substrate at 1/3 Km).
